# Measurements: PubChem BioAssay AID504454 (NMMLSC, 2011)
# Amino acid sequences for entries named in this document (tags omitted).
# UniProt P07550, whole entry: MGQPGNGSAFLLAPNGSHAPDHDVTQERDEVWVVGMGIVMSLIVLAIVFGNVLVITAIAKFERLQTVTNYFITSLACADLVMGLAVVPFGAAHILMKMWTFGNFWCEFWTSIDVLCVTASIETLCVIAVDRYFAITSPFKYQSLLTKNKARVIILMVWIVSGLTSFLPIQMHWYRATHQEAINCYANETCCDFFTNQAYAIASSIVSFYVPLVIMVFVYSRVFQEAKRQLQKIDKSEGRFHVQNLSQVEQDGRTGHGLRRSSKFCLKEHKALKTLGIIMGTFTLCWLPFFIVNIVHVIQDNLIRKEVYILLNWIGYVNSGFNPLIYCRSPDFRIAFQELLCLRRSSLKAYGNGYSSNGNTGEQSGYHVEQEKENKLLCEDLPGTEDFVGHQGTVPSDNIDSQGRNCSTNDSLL
# Only a part is listed here, and it is no random draw. Activity calls are given as the source filed them.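 The calls were made as follows: active = response above a set limit, near 3 SD of response in nonfluorescent compounds (cut at about 42% in these data); inactive = the rest.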
# Target: Beta-2 adrenergic receptor (Homo sapiens) (UniProt P07550)
# Test: beta2AR agonists driving receptor internalization, primary screen, cell-based, FAP fluorogen, flow cytometry (AID 504454)
# Details: Am2.2-beta2AR cells, active compounds read high, concentration not given here
row,SMILES,response
1,CN(C(=O)Cc1ccc(Cl)c(Cl)c1)[C@@H]1CCCC[C@H]1N1CCCC1,inactive: -9.17%
2,CC(C)/C=N\N=C(\N)N[N+](=O)[O-],inactive: 1.08%
3,COc1ccccc1CNC(=O)COC(=O)C(O)(c1ccccc1)c1ccccc1,inactive: 7.62%
4,O=[N+]([O-])c1cc([N+](=O)[O-])c(-c2cnn(-c3ccccc3)c2)c([N+](=O)[O-])c1,inactive: -4.13%
5,Clc1n[nH]nc1-c1nn[nH][15n]1,inactive: 3.05%
6,CC(C)(C)C(=O)NC(Sc1ncccn1)C(Cl)(Cl)Cl (centres undefined),inactive: 2.16%
7,CCOP(=O)(Nc1ccc(C)cn1)OCC,inactive: 2.07%
8,CCC1=CC2Cc3nc4ccc(Cl)cc4c(N)c3C(C1)C2 (centres undefined),inactive: 17.9%
9,O=P1(Nc2ccccn2)COc2ccccc2OC1,inactive: 14.2%
10,O=[N+]([O-])c1cc([N+](=O)[O-])c(-n2nnc3ccccc32)c([N+](=O)[O-])c1,inactive: -0.11%
11,CCOP(=O)(NC(=NC(C)c1ccccc1)NC(C)c1ccccc1)OCC (centres undefined),inactive: 3.78%
12,CCOP(=O)(Nc1cccc2ccccc12)OCC,inactive: -5.98%
13,Cc1ccc(C)c(NP(C)(=O)Oc2ccccc2)c1 (centres undefined),inactive: -0.45%
14,CCCOP(=S)(Nc1nc(N)cc(=O)[nH]1)OCCC,inactive: -8.25%
15,Cc1cc(C)cc(OP(C)(=O)Nc2ccccn2)c1 (centres undefined),inactive: 8.36%
16,CP(=O)(Nc1cccc(Br)c1)Oc1ccccc1 (centres undefined),inactive: -4.26%
17,Cc1ccc(NCCc2c([N+](=O)[O-])cc([N+](=O)[O-])cc2[N+](=O)[O-])cc1,inactive: 7.42%
18,Nc1cccc2c([As](=O)(O)O)cccc12,inactive: -6.36%
19,CCOC(=O)c1ccc(NP(C)(=O)Oc2cc(C)cc(C)c2)cc1 (centres undefined),inactive: -27.4%
20,Cc1cccc(OCC(=O)OC2CN3CCC2CC3)c1 (centres undefined),inactive: -5.49%
21,O=[As](O)(c1cccc(O)c1)c1cccc(O)c1,inactive: -0.59%
22,Cc1cc(C)cc(OP(C)(=O)Nc2ccc(C)cc2C)c1 (centres undefined),inactive: -1.86%

row,SMILES,response
1,O=[As](O)(O)c1cccnc1,inactive: 3.28%
2,COc1cc(C(=O)NCC2(N3CCOCC3)CCCCC2)cc(Cl)c1OC(C)C,inactive: -1.41%
3,COc1ccccc1OP(C)(=O)Nc1cccc(Br)c1 (centres undefined),inactive: 18.5%
4,CS(=O)(=O)c1ccc(Cl)c(NC(=O)COC(=O)C(O)(c2ccccc2)c2ccccc2)c1,inactive: 7.36%
5,O=C(OC1CN2CCC1CC2)c1ccc(Cl)cc1 (centres undefined),inactive: 1.49%
6,O=[N+]([O-])c1ccc2c(c1)nnn2O,inactive: -6.17%
7,CC1=NCCc2c1[nH]c1ccccc21.O=[N+]([O-])c1cc([N+](=O)[O-])c(O)c([N+](=O)[O-])c1,active: 60%
8,CN(C(=O)Cc1ccc(Cl)c(Cl)c1)[C@H]1CC[C@@]2(CCCO2)C[C@@H]1N1CCCC1,inactive: -2.44%
9,N#CCCN(C(=O)COC(=O)C(O)(c1ccccc1)c1ccccc1)c1ccc(F)cc1,inactive: 2.76%
10,CCOP1(=S)c2c(C)nn(CCC#N)c2N=C(c2ccc(F)cc2)N1C (centres undefined),inactive: -1.7%
11,CN(C(=O)Cc1ccccc1)[C@@H]1CC[C@]2(CCCO2)C[C@H]1N1CCCC1,inactive: 11%
12,NC(=O)Nc1ccc([As](=O)(O)O)cc1,inactive: -4.11%
13,O=C(O)COc1ccc([As](=O)(O)O)cc1[N+](=O)[O-],inactive: -7.56%
14,Nc1ccccc1[As](=O)(O)c1ccccc1,inactive: -2.14%
15,CS(=O)(=O)c1cc([N+](=O)[O-])c2no[n+]([O-])c2c1,inactive: 4.73%
16,O=C(O)c1cccc(Nc2c([N+](=O)[O-])cc([N+](=O)[O-])cc2[N+](=O)[O-])c1,inactive: -2.08%
17,CCOP1(=S)c2c(C)nn(CCC#N)c2N=C(c2ccccc2F)N1C (centres undefined),inactive: -7.69%
18,O=P(Nc1nccs1)(Oc1ccccc1)Oc1ccccc1,inactive: 1.29%
19,O=P(Nc1nccs1)(c1ccccc1)c1nc2ccccc2s1 (centres undefined),inactive: 7.75%
20,Cc1cc(C)cc(OP(C)(N)=O)c1 (centres undefined),inactive: -4%
21,CC(C)NC(=O)NP(=O)(Oc1ccccc1)Oc1ccccc1,inactive: -2.83%
22,COc1ccccc1OP(C)(=O)Nc1cc(Cl)ccc1C (centres undefined),inactive: -1.69%

row,SMILES,response
1,CCN(CC)C(=S)SC(NC=O)C(Cl)(Cl)Cl (centres undefined),inactive: 1.86%
2,O=C(OC1CN2CCC1CC2)c1cccc2[nH]cnc12 (centres undefined),inactive: 0.41%
3,COc1ccc(OP(C)(=O)Nc2cccc(F)c2)cc1 (centres undefined),inactive: 9.37%
4,O=[N+]([O-])c1cc([N+](=O)[O-])c(-c2ccn[nH]2)s1,inactive: 10.2%
5,COc1ccccc1OP(C)(=O)Nc1ccc(C)cc1 (centres undefined),inactive: 15.4%
6,COC(=O)C1(C)COP(=O)(N2CCCCCC2)OC1 (centres undefined),inactive: -1.37%
7,Cc1ccc(NP(C)(=O)Oc2ccccc2)c(C)c1 (centres undefined),inactive: 1.04%
8,CC(C)c1ccc(OP(=O)(Nc2ccccn2)Oc2ccccc2F)cc1 (centres undefined),inactive: 0.8%
9,CCOC(=O)c1ccc(NP(C)(=O)Oc2ccccc2)cc1 (centres undefined),inactive: 0.14%
10,ClCCSc1nnc(-c2cccnc2)o1,inactive: -1.11%
11,O=[N+]([O-])c1ccc2c(c1)C=Nc1ccccc1O2,inactive: 20.1%
12,Cc1ccc2nc3c(c(C)c2c1)CC(C(Cl)Cl)S3 (centres undefined),inactive: -8.4%
13,Cc1ccc(OP(=O)(Nc2ccc([N+](=O)[O-])cn2)Oc2ccc(C)cc2)cc1,inactive: 8.2%
14,CC(C)(C)c1ccc(OP(C)(=O)Nc2ccc(SC(F)(F)F)cc2)cc1 (centres undefined),inactive: 2.42%
15,Cc1cccc(C)c1OP(C)(N)=O (centres undefined),inactive: 8.1%
16,O=[As](O)(c1ccc(O)cc1)c1ccccc1O,inactive: 14.6%
17,C[As](=O)(O)c1cccc(C(=O)O)c1,inactive: -17.9%
18,O=[N+]([O-])c1ccc(-c2cc([N+](=O)[O-])c(O)c([N+](=O)[O-])c2)cc1,inactive: 9.17%
19,COc1cc(C(=O)NCC2(N3CCOCC3)CCCCC2)ccc1OCC(C)C,inactive: -13.4%
20,O=[N+]([O-])c1cc([N+](=O)[O-])c(Nc2cccnc2)c([N+](=O)[O-])c1,inactive: -0.87%
